{"source": "patent US20060110401A1", "about": "“Mixture of peptides from c and ns3 proteins of the hepatitis c virus and applications thereof” (priority 2002, published 2006)", "tested_on": "T lymphocytes derived from PBMCs from patients chronically infected with HCV", "format": "cell-based, human", "note": "“And” between values parts separate entries of the source, which are not always exact repeats. Identical values can stand only once. Marks after values point to notes of the source that are not given here."}
{"smiles": "CC[C@H](C)[C@H](NC(=O)[C@H](Cc1c[nH]cn1)NC(=O)[C@@H](NC(=O)[C@H](CC(C)C)NC(=O)CNC(=O)[C@@H](NC(=O)[C@H](Cc1ccccc1)NC(=O)[C@@H](NC(=O)CNC(=O)[C@H](CCC(=O)O)NC(=O)[C@H](Cc1c[nH]c2ccccc12)NC(=O)[C@H](Cc1ccccc1)NC(=O)[C@H](CCC(=O)O)NC(=O)[C@H](CC(C)C)NC(=O)[C@H](Cc1c[nH]cn1)NC(=O)[C@H](CC(=O)O)NC(=O)[C@@H](N)CCC(N)=O)C(C)C)[C@@H](C)O)[C@@H](C)O)C(=O)N[C@@H](CC(=O)O)C(=O)N[C@@H](C)C(=O)N[C@@H](Cc1c[nH]cn1)C(=O)N[C@@H](Cc1ccccc1)C(=O)N[C@@H](CC(C)C)C(=O)N[C@@H](CO)C(=O)N[C@@H](CCC(N)=O)C(=O)N[C@H](C(=O)N[C@@H](CCCCN)C(=O)N[C@@H](CCC(N)=O)C(=O)N[C@@H](CO)C(=O)NCC(=O)N[C@@H](CCC(=O)O)C(=O)N[C@@H](CC(N)=O)C(=O)N[C@@H](CC(C)C)C(=O)O)[C@@H](C)O", "note": "[29N 1552-1583]", "values": [{"measurement": "IL4", "result": "57 pg/mL and 44 pg/mL"}, {"measurement": "IL10", "result": "31* pg/ml and 38 — pg/ml"}]}
